Measurements published in US8916540B2, “Antibiotic compositions and related screening methods” (Academia Sinica, priority 2008, dated 2014).

Columns and labels:
Experiment in all cases: SPR moenomycin binding to immobilized full-length PBP
Conditions in all cases: read-out: SPR_KD, steady-state affinity, average values
[1] = biological target: T1, PBP1b from Pseudomonas aeruginosa (Pseudomonas aeruginosa, UniProt G3XD31)
T1 sequence (G3XD31 1-774): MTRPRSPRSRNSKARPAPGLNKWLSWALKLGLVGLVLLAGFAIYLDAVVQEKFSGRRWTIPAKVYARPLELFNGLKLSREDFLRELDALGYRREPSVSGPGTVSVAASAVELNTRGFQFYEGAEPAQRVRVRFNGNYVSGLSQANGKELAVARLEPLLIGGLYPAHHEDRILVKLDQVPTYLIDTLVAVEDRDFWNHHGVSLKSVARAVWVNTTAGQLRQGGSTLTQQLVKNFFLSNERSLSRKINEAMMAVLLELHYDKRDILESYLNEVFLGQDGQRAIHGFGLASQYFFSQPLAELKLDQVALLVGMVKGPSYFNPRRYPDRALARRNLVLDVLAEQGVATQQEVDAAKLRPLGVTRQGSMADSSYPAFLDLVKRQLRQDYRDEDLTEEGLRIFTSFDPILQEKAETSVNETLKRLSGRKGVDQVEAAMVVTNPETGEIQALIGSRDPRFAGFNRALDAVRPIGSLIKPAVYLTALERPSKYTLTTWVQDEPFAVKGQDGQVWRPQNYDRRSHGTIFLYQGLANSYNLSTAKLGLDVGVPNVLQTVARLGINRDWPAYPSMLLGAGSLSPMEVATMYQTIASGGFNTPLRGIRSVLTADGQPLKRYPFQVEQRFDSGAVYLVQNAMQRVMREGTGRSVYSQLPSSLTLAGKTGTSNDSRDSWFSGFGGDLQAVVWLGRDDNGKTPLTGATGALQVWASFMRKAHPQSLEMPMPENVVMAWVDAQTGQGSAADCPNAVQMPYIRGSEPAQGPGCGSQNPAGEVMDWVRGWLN

[2] = biological target: T2, PBP1a/1b from Bacillus subtilis (Bacillus subtilis, UniProt P39793)
T2 construct: The recombinant proteins of the full-length genes from 16 bacteria; (His)6 (N); made in house; host or cells: E. coli BL21(DE3)
T2 sequence (P39793 1-914): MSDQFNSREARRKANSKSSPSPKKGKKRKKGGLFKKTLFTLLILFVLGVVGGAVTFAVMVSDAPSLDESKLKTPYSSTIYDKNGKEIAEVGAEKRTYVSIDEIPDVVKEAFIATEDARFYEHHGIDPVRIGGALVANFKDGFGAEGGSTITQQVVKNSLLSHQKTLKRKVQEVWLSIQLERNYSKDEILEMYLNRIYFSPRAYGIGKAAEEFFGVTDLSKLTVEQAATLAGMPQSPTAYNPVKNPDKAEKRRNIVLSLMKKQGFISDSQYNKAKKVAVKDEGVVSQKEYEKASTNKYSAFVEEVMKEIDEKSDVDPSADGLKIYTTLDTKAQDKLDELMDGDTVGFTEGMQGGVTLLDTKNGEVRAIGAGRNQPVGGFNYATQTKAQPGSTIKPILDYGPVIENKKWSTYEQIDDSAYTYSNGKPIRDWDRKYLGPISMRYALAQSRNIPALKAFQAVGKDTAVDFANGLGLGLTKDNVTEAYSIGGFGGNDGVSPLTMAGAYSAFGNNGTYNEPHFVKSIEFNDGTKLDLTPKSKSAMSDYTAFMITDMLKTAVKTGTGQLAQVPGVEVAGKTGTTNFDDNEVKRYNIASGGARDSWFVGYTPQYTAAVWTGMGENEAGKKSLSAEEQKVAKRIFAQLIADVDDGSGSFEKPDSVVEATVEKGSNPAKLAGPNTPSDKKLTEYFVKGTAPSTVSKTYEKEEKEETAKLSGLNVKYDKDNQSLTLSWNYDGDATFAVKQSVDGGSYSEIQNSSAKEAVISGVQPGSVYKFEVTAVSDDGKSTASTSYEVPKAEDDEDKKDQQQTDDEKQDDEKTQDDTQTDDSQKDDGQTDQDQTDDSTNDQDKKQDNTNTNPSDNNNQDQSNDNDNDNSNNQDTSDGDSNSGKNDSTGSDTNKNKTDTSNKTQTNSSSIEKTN

[3] = biological target: PBP1b from Streptococcus pneumoniae (Streptococcus pneumoniae, UniProt Q7CRA4)

Moenomycin A [Compound 1]
Kd [1]: 866 nM
Kd [2]: 1690 nM
Kd [3]: 900 nM
